Yeast mating assay B: variants of the scFv Ab-14

Source: Li et al. 2023 (doi:10.1038/s41467-023-39022-2), MIT Lincoln Laboratory and A-Alpha Bio; data file from the FLAb repository.

Binding partner: SARS-CoV-2 spike HR2 peptide, sequence PDVDLGDISGINAS.

Parent scFv Ab-14: VH joined to VL by a 15-residue (Gly4Ser)3 linker. Changes lie in the light chain CDRs alone.
VH: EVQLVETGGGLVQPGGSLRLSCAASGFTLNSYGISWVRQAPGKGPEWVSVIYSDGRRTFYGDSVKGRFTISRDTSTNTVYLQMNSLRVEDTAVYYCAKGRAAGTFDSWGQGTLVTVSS
VL: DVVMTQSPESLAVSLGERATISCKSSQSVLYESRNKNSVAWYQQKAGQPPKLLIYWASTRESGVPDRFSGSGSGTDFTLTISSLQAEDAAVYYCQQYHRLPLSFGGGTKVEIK

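The parent was found by panning a naive human phage display library on the peptide. The variants were designed computationally from a first round of random CDR variants and then made and measured. Group labels follow the data file (Ctrl: baseline library sampled from a position-specific scoring matrix, with some repeated check sequences; GP: Gaussian process model; GPLM: also part of the Gaussian process libraries; HC: hill climbing; Gen: genetic algorithm; Gibbs: Gibbs sampling; a sequence that several methods proposed may carry one label only). The scFvs were displayed on barcoded MATa yeast, the peptide on MATalpha yeast. Pairs that bind mate more often; barcode pairs of the diploids are counted by sequencing. Each replicate has its own calibration line, from reference interactions of the BCL2 family. The assay was run in six technical replicates.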

Each variant is given by its three light chain CDRs, as the data file delimits them; those of the parent are KSSQSVLYESRNKNSVA, WASTRES, QQYHRLPLS.
Variants here have at most six changes.
The Kd shown is the geometric mean over detected replicates; a lower Kd is a better binder.
"nd" marks a missing value. The strain was present, yet no cells mated with the target were sequenced in any replicate, which points to weak or no binding.
Values of this round are not directly comparable with the first-round values of the same sequences.

Variant KVSQSVLYESRNKWSVA | NASTRES | QQYHRLPLS [GP_Gen] showed 1.2 nM (6 of 6 replicates). With HSSPSVLYESRNKNNVA | EASTRES | QQYHRLPLS [GP_HC] the result was 650 pM (6 of 6 replicates). For KLSQSELYESRNKNSVA | EASQREQ | QQYHRLPLS [GP_Gen], the assay gave 2.7 nM (6 of 6 replicates). For KLSQSVDYESRNKNSVA | NASTREE | QQYHRLPLS [GP_Gen], the assay gave 500 pM (6 of 6 replicates). With KVSQSWLYESRNKQSVA | NASTRES | QQYHRLPLS [GP_Gen] the result was 750 pM (6 of 6 replicates).

For KSSQSVLYEETNKNSVA | EASYRET | QQYHRLPLS [Ctrl], the assay gave 4.6 nM (6 of 6 replicates). Variant KSSQSVLPESRNKSSVA | WASTRES | QQYHRLPLS [Ctrl] showed 700 nM (3 of 6 replicates). Variant KLSQSMLYESRNKNSVA | DASTRES | QAYHRLPLS [GP_Gen] showed 820 pM (6 of 6 replicates). Variant KSSQSVLYDSYNKNSVA | WASEREI | QQYHRLPLS [Ctrl] gave 12 nM (6 of 6 replicates). Variant KSQQSWLYESRNKNSVA | NASTRED | QQYHRLPLS [GP_HC] gave 170 nM (3 of 6 replicates).

With KLQQSVLYESRMKNSVA | NASTRED | QQYHRLPLS [GP_Gen] the result was 840 pM (6 of 6 replicates). For KSSQSVLVESRNKNSVA | DASTRES | QQYHRLPLS [Ctrl+GPLM_HC], the assay gave 1.2 nM (12 of 12 replicates). With KFSQSVDYESRQKNSVA | NASTRLS | QQYHRLPLS [GP_Gibbs] the result was 790 pM (6 of 6 replicates). Variant KISQSVPYESRNKNSVA | EASTRES | QKYHHLPLS [Ctrl] showed nd (0 of 6 replicates). Variant KSSQSVLYEDRFKNSVA | WALTRVS | QQYHRLPLS [Ctrl] gave nd (0 of 6 replicates).

For KVSQSVLYESRNKNSVA | WASMRES | QQYHRLPLS [Ctrl], the assay gave 12 nM (6 of 6 replicates). Variant KLNQSTLYESRNQNSVA | NASTRES | QQYHRLPLS [GP_HC] gave 550 pM (6 of 6 replicates). For KLQQSVLYESRNKNSVA | GASTRMS | QQYHRLPLS [GP_Gen], the assay gave 1.2 nM (6 of 6 replicates). Variant KSGQGVLEESRNKNSVA | GASQRLS | QQYHRLPLS [GP_HC] showed 2.3 nM (6 of 6 replicates). With KSSQSVLQESRNKNSVA | NAMTRES | QQYHRLPLS [Ctrl] the result was 2.3 nM (6 of 6 replicates).

Variant KFSQLVLYESRNKNSVA | NASTRES | QQYRRLPLS [GP_Gibbs] showed 1.2 nM (6 of 6 replicates). With KSSQGWLYESRNKNSVA | GASTRES | QQYHRLPLS [GPLM_HC] the result was 1.2 nM (6 of 6 replicates). Variant KSYISQLYESRNKNSVA | EASTRES | QQYHRLPLS [GP_HC] gave 420 pM (6 of 6 replicates). Variant KLSQSDLYESRNKNSVA | EASTREM | QQYHRLPLS [GP_Gen] showed 1.6 nM (6 of 6 replicates). Variant KSSQSELFQSRNKNSVA | DASTRES | QQYHRLPLS [GP_HC] showed 600 pM (6 of 6 replicates).

With KSSISYLYESENKYSVA | EASQRES | QQYHRLPLS [GP_HC] the result was nd (0 of 6 replicates). Variant KLEQSKLYESRNKNSVA | NASTRES | QQYHRLPLS [GP_Gen] showed 670 pM (6 of 6 replicates). Variant KLQQSWLYESRNKNSVA | NASTREM | QQYHRLPLS [GP_Gen] gave 970 pM (6 of 6 replicates). Variant KVSQSVLYESRNWNSVA | DASTRES | QQYHRLPLS [GP_Gen] gave 540 pM (6 of 6 replicates). Variant KSSQSDLYESRNKNSVA | HASTREQ | QQYHRLPLS [GP_HC] gave 1.0 nM (6 of 6 replicates).

With KASQSVKFESRNKNSVA | DASTRES | QQYHRLPLS [GP_HC] the result was 2.1 nM (6 of 6 replicates). For KSSQSALYESENKNSVA | WASTRES | QQYHRLPLS [Ctrl], the assay gave nd (0 of 6 replicates). With KLSESDLYESRNKNSVA | EASTRES | QQYHRLPLS [GP_Gen] the result was 1.1 nM (6 of 6 replicates). Variant KLSQSYLYESRNKNSVA | NASTREQ | QQYHRLPLS [GP_Gen] showed 520 pM (6 of 6 replicates). For KFSQSVLYESRNKNSVA | QASTRAS | QQYHRLPLS [Ctrl], the assay gave 670 pM (6 of 6 replicates).

Variant KLSQSQLYESRNKNSVA | NASTRED | QQYHRLPLS [GP_Gen] showed 1.0 nM (6 of 6 replicates). With KLSQSVLMESRNCNSVA | DASTRES | QQYHRLPLS [GP_HC] the result was 2.3 nM (6 of 6 replicates). With KLSQSTLYESRNTNSVA | QASTRLQ | QQYHRLPLS [GP_Gibbs] the result was 42 nM (6 of 6 replicates). With KLQQSELYESRNKNSVA | QASTRMS | QQYHRLPLS [GP_Gen] the result was 1.1 nM (6 of 6 replicates). Variant KMPQSVLYESRNKNSVA | NASTRMS | QQYHRLPLS [GP_Gen] showed 820 pM (6 of 6 replicates).

For KSSQSDLYESRNKNSVA | GASSRES | QQYHRLPLS [GP_HC], the assay gave 780 pM (6 of 6 replicates). For KLSQSVLYESRNKNSVA | HASLRED | QQYHRLPLS [GP_HC], the assay gave 2.0 nM (6 of 6 replicates). Variant KLSQSELYESRMKNSVA | NASYRES | QQYHRLPLS [GP_Gen] gave 1.4 nM (6 of 6 replicates). Variant KSSQSGLYESTNKNSVA | WASTRES | QQYHRLPLS [Ctrl] showed 100 nM (5 of 6 replicates).

Picked from the list: the 6 lowest averages where every replicate gave a value.

Variant KSYISQLYESRNKNSVA | EASTRES | QQYHRLPLS [GP_HC] gave 420 pM (6 of 6 replicates).
Variant KLSQSVDYESRNKNSVA | NASTREE | QQYHRLPLS [GP_Gen] gave 500 pM (6 of 6 replicates).
Variant KLSQSYLYESRNKNSVA | NASTREQ | QQYHRLPLS [GP_Gen] gave 520 pM (6 of 6 replicates).
Variant KVSQSVLYESRNWNSVA | DASTRES | QQYHRLPLS [GP_Gen] gave 540 pM (6 of 6 replicates).
Variant KLNQSTLYESRNQNSVA | NASTRES | QQYHRLPLS [GP_HC] gave 550 pM (6 of 6 replicates).
Variant KSSQSELFQSRNKNSVA | DASTRES | QQYHRLPLS [GP_HC] gave 600 pM (6 of 6 replicates).

The authors averaged sequences with at least three values out of six and counted those with two or fewer as poor binders.
As a blank, each scFv also met three strains without target: over all light chain designs, 4% of these pairings were detected, typically at 430 nM and seldom below 38 nM.
Some sequences occur more than once in the pool; their replicates are pooled.